# Laboratory results from patent US9901648B2, “Stabilization of biomolecules using sugar polymers” (THE REGENTS OF THE UNIVERSITY OF CALIFORNIA, priority 2012, dated 2018).
# Test system: RNase ONE ribonuclease
# Conditions: 825 eq trehalose added; 37° C.
smiles,measurement,value
OC[C@H]1O[C@H](O[C@H]2O[C@H](CO)[C@@H](O)[C@H](O)[C@H]2O)[C@H](O)[C@@H](O)[C@@H]1O [trehalose],protection of naked siRNA against RNase ONE by added trehalose,protect siRNA better than having no additives
